Values quoted from earlier work as cited in patent publication US6779468B1, “Method and pharmaceutical composition for iron delivery in hemodialysis and peritoneal dialysis patients” (priority 1997, dated 2004).

Details: higher concentrations, intraperitoneal

iron dextran
toxicity to the peritoneum: toxic to the peritoneum
